Experimental data from patent US20190004036.
Where two headings read alike, the source gives them in different places.

How the values were obtained:
[1] = tested on: T1, 5FAMcollagenPPT protease substrate
T1 sequence: AGGPLGPPGPGGK

[2] = target: T2, 5FAMcollagenPPT protease substrate
T2 chain: AGGPLGPPGPGGK

Collagenase I/II
time-dependent cleavage assay (fluorescence at 1, 5, 24 h; 10 µM peptide, 20 µg/mL protease) [1]: almost all of the proteases tested, except for thermolysin, showed efficient cleavage of the protease substrate within the first hour

Collagenase NB1
time-dependent cleavage assay (fluorescence at 1, 5, 24 h; 10 µM peptide, 20 µg/mL protease) [1]: almost all of the proteases tested, except for thermolysin, showed efficient cleavage of the protease substrate within the first hour

Neutral Protease
time-dependent cleavage assay (fluorescence at 1, 5, 24 h; 10 µM peptide, 20 µg/mL protease) [1]: almost all of the proteases tested, except for thermolysin, showed efficient cleavage of the protease substrate within the first hour

collagenase class I
time-dependent cleavage assay (fluorescence at 1, 5, 24 h; 10 µM peptide, 20 µg/mL protease) [1]: almost all of the proteases tested, except for thermolysin, showed efficient cleavage of the protease substrate within the first hour

B1: thermolysin (protein)
chain: ITGTSTVGVGRGVLGDQKNINTTYSTYYYLQDNTRGNGIFTYDAKYRTTLPGSLWADADNQFFASYDAPAVDAHYYAGVTYDYYKNVHNRLSYDGNNAAIRSSVHYSQGYNNAFWNGSQMVYGDGDGQTFIPLSGGIDVVAHELTHAVTDYTAGLIYQNESGAINEAISDIFGTLVEFYANKNPDWEIGEDVYTPGISGDSLRSMSDPAKYGDPDHYSKRYTGTQDNGGVHINSGIINKAAYLISQGGTHYGVSVVGIGRDKLGKIFYRALTQYLTPTSNFSQLRAAAVQSATDLYGSTSQEVASVKQAFDAVGVK
time-dependent cleavage assay (fluorescence at 1, 5, 24 h; 10 µM peptide, 20 µg/mL protease) [2]: by the five hour time point, thermolysin had also sufficiently cleaved the substrate
